Laboratory results: article PMC4756533, “Oestrogen receptor β regulates epigenetic patterns at specific genomic loci through interaction with thymine DNA glycosylase” (Epigenetics & Chromatin, 2016)

By UniProt entry, the sequences of proteins in these tests, tags left out.
UniProt Q92731, whole entry: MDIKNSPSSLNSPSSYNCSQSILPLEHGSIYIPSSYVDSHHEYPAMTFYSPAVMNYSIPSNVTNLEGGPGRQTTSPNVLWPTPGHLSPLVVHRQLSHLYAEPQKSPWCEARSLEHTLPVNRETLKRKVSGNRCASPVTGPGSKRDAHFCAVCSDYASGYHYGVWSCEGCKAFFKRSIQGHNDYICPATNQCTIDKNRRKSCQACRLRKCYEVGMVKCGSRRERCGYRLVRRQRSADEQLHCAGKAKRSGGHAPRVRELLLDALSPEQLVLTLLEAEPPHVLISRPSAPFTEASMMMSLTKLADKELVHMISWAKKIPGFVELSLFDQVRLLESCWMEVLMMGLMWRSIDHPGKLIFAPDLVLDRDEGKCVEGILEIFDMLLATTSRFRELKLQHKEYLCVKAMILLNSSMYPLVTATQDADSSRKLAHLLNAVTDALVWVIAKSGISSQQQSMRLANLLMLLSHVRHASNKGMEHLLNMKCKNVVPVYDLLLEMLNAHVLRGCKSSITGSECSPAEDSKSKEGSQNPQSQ

Target: GST-tagged ERβ (oestrogen receptor beta coupled to glutathion-S-transferase) (human, UniProt Q92731)
Test: cell-based or functional assay

B1: recombinant thymine DNA glycosylase (hTDG) (enzyme, human, UniProt Q13569 1-410, looked up)
chain: MEAENAGSYSLQQAQAFYTFPFQQLMAEAPNMAVVNEQQMPEEVPAPAPAQEPVQEAPKGRKRKPRTTEPKQPVEPKKPVESKKSGKSAKSKEKQEKITDTFKVKRKVDRFNGVSEAELLTKTLPDILTFNLDIVIIGINPGLMAAYKGHHYPGPGNHFWKCLFMSGLSEVQLNHMDDHTLPGKYGIGFTNMVERTTPGSKDLSSKEFREGGRILVQKLQKYQPRIAVFNGKCIYEIFSKEVFGVKVKNLEFGLQPHKIPDTETLCYVMPSSSARCAQFPRAQDKVHYYIKLKDLRDQLKGIERNMDVQEVQYTFDLQLAQEDAKKMAVKEEKYDPGYEAAYGGAYGENPCSSEPCGFSSNGLIESVELRGESAFSGIPNGQWMTQSFTDQIPSFSNHCGTQEQEEESHA
For B1, which “3x ERE-luciferase reporter activity of ERβ (pSG5-hERβ) in Tdg-/- MEFs co-transfected with 50, 150 and 300 ng TDG plasmid (pSHH25-TDG), in the absence of ligand; increase by TDG” value is on record?
The value was 2 fold.

And the “3x ERE-luciferase reporter activity of ERβ (pSG5-hERβ) in Tdg-/- MEFs co-transfected with 50, 150 and 300 ng TDG plasmid (pSHH25-TDG), in the presence of 10 nM E2; increase by TDG” value?
Its value is 2.5 fold.
